Experimental data taken from patent US4845121A, “Aci-reductone compounds belonging to the 6,7-disubstituted-3,4-dihydro benzopyan-2H-one class having antiaggregatory properties” (The Ohio State University Research Foundation, priority 1986, dated 1989).

How the values were obtained:
[1] = system: human platelets (AA-induced MDA formation); assay: AA-induced malondialdehyde (MDA) formation; type: cell-based; conditions: Platelet, read-out: IC50, AA-induced MDA formation
Experimental: (§1) The antiaggregatory action of the compounds of the present invention was determined using the following procedure: ADP and AA were obtained from Sigma Chemical Co., (St. Louis, MO). [^14 C]-Serotonin (57 mCi/mmol) and [^3 H]-AA (210 Ci/mmol) were supplied by Amersham (Arlington Heights, IL). U46619 (15S-hydroxy-11α,9α-epoxymethano-prosta-5z,13E-dienoic acid) was purchased from Upjohn Diagnostics (Kalamazoo, MI). Blood was collected from normal human volunteers who reported to be free of medication for at least 10 days prior to blood collection. Washed platelets were prepared and suspended in a modified Tyrode's solution, pH 7.4 as described in Navran, S. S., et al., Thromb. Res., 33: 449-510 (1984). […]
(§2) Platelet aggregation studies were performed according to the turbidometric method of Born, as described in Nature, 194: 927-929 (1962), in a Payton Model 600 dual channel aggregometer interfaced to an Apple microcomputer for acquistion, quantitation, presentation, and management of platelet aggregation data, as described in Huzoor-Akbar, et al., 32 Thromb. […] Secretion of the contests of platelet dense granules was measured by monitoring the release of radioactivity from platelets prelabeled with [^14 C]-serotonin. Malondialdehyde formation induced by AA was determined as described in Huzoor-Akar et al., Biochem Pharmacol., 30: 2013-2020 (1981). […]

[2] = system: human platelets (ADP-induced aggregation); assay: ADP-induced human platelet aggregation (turbidometric, secondary aggregation); type: cell-based
Experimental: (§3) The antiaggregatory action of the compounds of the present invention was determined using the following procedure: ADP and AA were obtained from Sigma Chemical Co., (St. Louis, MO). [^14 C]-Serotonin (57 mCi/mmol) and [^3 H]-AA (210 Ci/mmol) were supplied by Amersham (Arlington Heights, IL). U46619 (15S-hydroxy-11α,9α-epoxymethano-prosta-5z,13E-dienoic acid) was purchased from Upjohn Diagnostics (Kalamazoo, MI). Blood was collected from normal human volunteers who reported to be free of medication for at least 10 days prior to blood collection. Washed platelets were prepared and suspended in a modified Tyrode's solution, pH 7.4 as described in Navran, S. S., et al., Thromb. […] The platelet count was adjusted to 3×10^8 /ml for aggregation, secretion and biochemical studies.
Inhibitors were added one minute prior to induction of platelet activation. Secretion of the contests of platelet dense granules was measured by monitoring the release of radioactivity from platelets prelabeled with [^14 C]-serotonin. […] To study the release of AA from platelet phospholipids, washed platelets were incubated with [^3 H]-AA (3.6 mCi/10^9 platelets) for two hours at room temperature prior to the final centrifugation and resuspension of the washing procedure. Released [^3 H]-AA was quantified from supernatants of stimulated platelet samples in a manner identical to the determination of serotonin secretion.

[3] = system: human platelets (arachidonic acid-induced aggregation); assay: Arachidonic acid-induced human platelet aggregation (turbidometric); type: cell-based; conditions: inhibitor 1 min before AA (0.2-1 mM), mean ± S.E.M., n = 3-9 donors
Experimental: as §3
(§4) Inhibitors were added one minute prior to induction of platelet activation. Secretion of the contests of platelet dense granules was measured by monitoring the release of radioactivity from platelets prelabeled with [^14 C]-serotonin. […] Released [^3 H]-AA was quantified from supernatants of stimulated platelet samples in a manner identical to the determination of serotonin secretion.

[4] = system: human platelets (U46619, thromboxane A2 agonist-induced aggregation); assay: U46619-induced human platelet aggregation (turbidometric, + ASA); type: cell-based
Experimental: as §3, §4

[5] = system: human platelets (arachidonic acid-induced serotonin secretion); assay: Arachidonic acid-induced [14C]-serotonin secretion; type: cell-based
Experimental: as §3, §4

[6] = system: human platelets (ADP-induced aggregation); conditions: literature; cited from earlier work
[7] = system: human platelets (collagen-induced serotonin secretion); conditions: Witiak et al., J. Med Chem. 25: 90 (1982); cited from earlier work
[8] = system: human platelets (collagen-induced aggregation); conditions: literature, cited from earlier work
[9] = system: human platelets (thrombin-induced [3H]-AA release); assay: Thrombin-induced [3H]-arachidonic acid release; type: cell-based
Experimental: as §1, §2

CC(C)(Oc1ccc(Cl)cc1)C(=O)O [Clofibric acid 1, clofibric acid]
IC50 [1]: > 2.96 mM | inhibition of (secondary wave of) ADP-induced aggregation (in words) [2]: concentration-dependent inhibition | rank order of potency, aggregation and serotonin secretory responses to ADP and AA ([2]; ADP and AA, aggregation and serotonin secretion together): benzopyranone analogue>2,3-dihydrobenzofuran analog>clofibric acid | IC50 ([2]; Homo sapiens, Platelet, inhibitor 1 min before ADP (1-5 uM), secondary aggregation only, mean ± S.E.M., n = 3-9 donors): 0.98 ± 0.245 mM | IC50 [3]: 3.07 mM | inhibition of U46619-induced aggregation/responses (in words) [4]: Unlike clofibric acid | IC50 ([4]; Homo sapiens, Platelet, inhibitor 1 min before U46619 (0.3 uM), aspirin 1 mM added, mean ± S.E.M., n = 3-9 donors): 4 mM | rank order of inhibitory potency, AA-induced serotonin secretion ([5]; AA-induced serotonin secretion): IX>X>1 | IC50 ([5]; Homo sapiens, Platelet, inhibitor 1 min before AA (0.2-1 mM), mean ± S.E.M., n = 3-9 donors): 3.43 mM | inhibition of ADP-induced human platelet activation (in words) [6]: inhibits collagen- and adenosin diphosphate (ADP)-induced human platelet activation | inhibition of collagen-induced secretion of [14C]-serotonin (in words) [7]: in a concentration-dependent manner at equivalent doses | inhibition of collagen-induced human platelet aggregation/activation (in words) [8]: inhibits collagen- and adenosin diphosphate (ADP)-induced human platelet activation | inhibition of collagen-induced human platelet aggregation/activation (in words) ([8]; listed as 1): inhibit collagen-inducedhuman platelet aggregation | rank order of inhibitory potency, thrombin-induced AA release [9]: IX>>X=1; also recorded: IX>1=X | IC50 ([9]; Homo sapiens, Platelet, read-out: IC50, thrombin-induced [3H]-AA release): 3.31 mM

“Also recorded” adds a separate entry of the source. Where two headings read alike, the source gives them in different places.
